From ChEMBL document CHEMBL1129799, “Homology modeling of metabotropic glutamate receptors. (mGluRs) structural motifs affecting binding modes and pharmacological profile of mGluR1 agonists and competitive antagonists” (J Med Chem, 1996)

Sequences of proteins named here, by UniProt entry; tags and fusion partners are left off. A change or cut given only in a name is not applied to a line headed by its entry.
UniProt Q13255: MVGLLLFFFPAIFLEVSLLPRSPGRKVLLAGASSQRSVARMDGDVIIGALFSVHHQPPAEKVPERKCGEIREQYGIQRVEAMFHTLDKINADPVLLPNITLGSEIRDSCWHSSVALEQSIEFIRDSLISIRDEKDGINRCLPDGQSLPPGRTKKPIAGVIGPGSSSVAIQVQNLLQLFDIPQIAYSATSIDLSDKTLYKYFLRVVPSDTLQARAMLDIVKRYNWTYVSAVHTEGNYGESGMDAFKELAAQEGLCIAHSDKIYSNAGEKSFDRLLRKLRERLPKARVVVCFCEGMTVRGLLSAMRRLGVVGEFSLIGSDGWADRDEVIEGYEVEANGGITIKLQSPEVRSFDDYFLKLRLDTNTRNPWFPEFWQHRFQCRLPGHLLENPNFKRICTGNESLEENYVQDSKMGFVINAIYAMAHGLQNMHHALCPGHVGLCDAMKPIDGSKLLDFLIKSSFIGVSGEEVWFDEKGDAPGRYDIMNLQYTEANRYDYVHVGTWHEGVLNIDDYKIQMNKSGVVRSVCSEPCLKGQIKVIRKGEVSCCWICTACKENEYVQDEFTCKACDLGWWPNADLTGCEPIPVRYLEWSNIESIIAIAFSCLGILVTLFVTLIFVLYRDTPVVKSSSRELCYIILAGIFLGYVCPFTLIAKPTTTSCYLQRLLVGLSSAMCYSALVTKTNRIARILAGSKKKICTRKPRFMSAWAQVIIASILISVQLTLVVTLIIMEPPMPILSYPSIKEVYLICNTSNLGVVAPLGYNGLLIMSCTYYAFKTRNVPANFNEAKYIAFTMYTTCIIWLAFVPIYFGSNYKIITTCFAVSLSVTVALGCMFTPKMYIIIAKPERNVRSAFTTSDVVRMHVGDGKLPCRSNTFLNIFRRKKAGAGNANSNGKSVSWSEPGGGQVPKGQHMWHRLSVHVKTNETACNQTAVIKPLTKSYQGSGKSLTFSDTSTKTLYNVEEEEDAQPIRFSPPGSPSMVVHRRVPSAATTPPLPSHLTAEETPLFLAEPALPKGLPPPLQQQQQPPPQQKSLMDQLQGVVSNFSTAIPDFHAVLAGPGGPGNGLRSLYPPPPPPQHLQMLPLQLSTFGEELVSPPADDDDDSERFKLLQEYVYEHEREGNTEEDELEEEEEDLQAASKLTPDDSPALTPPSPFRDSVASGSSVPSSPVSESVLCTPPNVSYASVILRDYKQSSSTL

Biological target: Metabotropic glutamate receptor 1 (Homo sapiens, UniProt Q13255)
Assay: Effective concentration for half maximal stimulation of PI hydrolysis (mGluR1a)

Q: With `N[C@@H](Cn1oc(=O)[nH]c1=O)C(=O)O` [QUISQUALATE] as the compound, how does the EC50 read?
A: 200 nM
